Molecules are shown by their SMILES.

By UniProt entry, the sequences of proteins in these tests, tags left out. Residues count along the entry.
UniProt Q9F663, 25-293 D178Y: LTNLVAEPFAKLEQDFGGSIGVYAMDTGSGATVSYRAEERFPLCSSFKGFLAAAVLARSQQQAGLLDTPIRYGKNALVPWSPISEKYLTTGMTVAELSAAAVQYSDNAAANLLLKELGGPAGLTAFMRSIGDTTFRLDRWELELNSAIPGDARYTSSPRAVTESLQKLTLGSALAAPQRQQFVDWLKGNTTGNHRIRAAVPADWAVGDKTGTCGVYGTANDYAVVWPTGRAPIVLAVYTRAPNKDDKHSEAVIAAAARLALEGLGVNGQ
UniProt Q9F663, 25-293 D178Y/H272Y: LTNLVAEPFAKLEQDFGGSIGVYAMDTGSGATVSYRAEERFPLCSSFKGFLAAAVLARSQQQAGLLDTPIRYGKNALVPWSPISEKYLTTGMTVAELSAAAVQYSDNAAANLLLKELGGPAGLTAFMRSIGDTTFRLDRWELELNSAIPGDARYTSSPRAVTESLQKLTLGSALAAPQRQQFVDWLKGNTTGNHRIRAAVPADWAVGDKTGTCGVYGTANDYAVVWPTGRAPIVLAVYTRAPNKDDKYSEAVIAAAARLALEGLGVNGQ

A word on the Ki: it is a measure of affinity in units of concentration, obtained from inhibition or displacement.

For one assay, the target named is KPC-33 (Klebsiella pneumoniae, UniProt Q9F663, D178Y). Briefly: biochemical.
Another assay addresses KPC-31 (Klebsiella pneumoniae, UniProt Q9F663, D178Y/H272Y). The assay can be described thus: biochemical.

`O=C(NC1CCNCC1)[C@@H]1CC[C@@H]2CN1C(=O)N2OS(=O)(=O)O` [Relebactam, relebactam]: the Ki was 74 ± 29.1 nM on KPC-33 and 862 ± 75.3 nM on KPC-31.

(Values after patent EP4635500A1, “THERAPEUTIC AGENT FOR BACTERIAL INFECTION” (Sumitomo Pharma Co., Ltd., priority 2022, dated 2024).)
